Compound activity deposited in PubChem BioAssay by National Center for Advancing Translational Sciences (NCATS).
A549 tox = counter-screen for Nrf2 inhibitors: cytotoxicity in A549 cells | Potency, µM (series often up to 46 µM), hits mostly inhibitors | 390,000 compounds, 0.16% hits | A549 ARE-Fluc cells, CellTiter-Fluor viability, 18-24 h
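A549 ARE_Fluc cells in 5% FBS OPTI-MEM were exposed to compounds in concentration-response for 18-24 h at 37 deg C. Viability was read by CellTiter-Fluor fluorescence (Ex 405/Em 525) after 30 min, before the luciferase read.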
Nrf2 block = Nrf2 pathway inhibition; A549 ARE-Fluc reporter, luciferase luminescence, 18-24 h; Potency, µM (titrated, usually from 46 µM), usual class: inhibitors; 360,000 compounds, 2.1% hits; AID 504444; further: nearly all actives have a fitted effect of over 60% in size
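Two sequential reads on A549 ARE_Fluc cells exposed to compound for 18-24 h: a CellTiter-Fluor fluorescence read for viability, then a luciferase luminescence read for Nrf2/ARE activity.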
Nrf2 ARE act = activates Nrf2 signaling | AREc32 ARE-luciferase reporter (MCF7-derived line), luminescence, 24 h | AID 624171 | Potency, µM (top dose mostly 46.1 µM), actives largely listed as activators | 410,000 compounds, 0.31% hits; further: nearly all actives have a fitted effect of over 65% in size
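Cells of the AREc32 ARE-luciferase line are plated in OPTI-MEM containing 5% FBS and left overnight at 37 deg C. Compounds are pinned in, incubation continues 24 hr, and firefly luciferase signal is then measured.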
Mito fusion yeast = mitochondrial division inhibition or fusion activation; S. cerevisiae fusion-defective mutant growth rescue, CellTiterGlo 48 h; Potency, µM (top dose mostly 46.1 µM), usual class: activators; 320,000 compounds, 0.23% hits; AID 485298; further: nearly all actives have a fitted effect of over 45% in size
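Temperature-sensitive fusion-defective S. cerevisiae (e.g. fzo1-1, mgm1-5) were grown with compound in YPEG medium (3% ethanol, 3% glycerol) for 48 hours at 37C. Growth rescue was measured as viability by CellTiterGlo luminescence after 10 minutes at ambient.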
miR-21 FLuc = miR-21 reporter, rising signal | 340,000 tested, under 10 active | AID 2288 | HeLa miR-21 FLuc reporter, luciferase, 48 h | Potency, µM (titrated, usually from 38.3 µM); active = well fitted rising curve with a large enough effect; inconclusive = small, poorly fitted or top-dose-only effect; inactive = no such curve, though single readings can be large or run the other way;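 further: miR-21 action dims this reporter so a rising signal means less miR-21 action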
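Using DMEM plus 10% FBS, HeLa miR-21-FLuc cells are incubated with test compounds (final up to about 40uM) for 48 hours; firefly luciferase signal is then imaged following reagent-mediated lysis.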
Large screens that a line does not name were inactive; ! = not confirmed by another sample. An excerpt weighted towards active compounds, which were near 2.3% of everything screened. Unless noted, the call rests on the fitted dose curve; in most records, active means well fitted curve in the direction sought with a large enough effect; inconclusive means small, poorly fitted or top-dose-only effect, or another doubt; inactive means no such curve, though single readings can be large; an effect the other way counts as inactive or inconclusive.

COc1ccc(Cl)cc1S(=O)(=O)NCCCn1ccnc1	none
Cc1ccc(C23CC4CC(CC(CN)(C4)C2)C3)cc1	miR-21 FLuc inconclusive
Cc1ccc(C23CC4CC(CC(CC(=O)NC(C)(C)CO)(C4)C2)C3)cc1	Mito fusion yeast 18µM
Cc1cc2c(s1)c1cnn(Cc3ccc(C(F)(F)F)cc3F)c(=O)c1n2C	none (no result: Nrf2 ARE act, Mito fusion yeast, miR-21 FLuc)
COCC(=O)N(CCc1ccccc1)Cc1cc2cc(C)ccc2nc1Cl	none
COCC(=O)N(CCc1ccc(OC)c(OC)c1)Cc1cc2cc(C)ccc2nc1Cl	Nrf2 block 16µM
Cc1oc(-c2ccccc2F)nc1CS(=O)(=O)CC(=O)N1CCN(c2ccc(Cl)cc2)CC1	A549 tox inconclusive, Nrf2 block 5.8µM, miR-21 FLuc inconclusive (no result: Mito fusion yeast)
O=C(c1cnn2c(C(F)F)cc(-c3ccccc3)nc12)N1CCc2ccccc2C1	A549 tox inconclusive, Nrf2 block 23µM
CCOCCCn1c(C)nc2c(c1=O)c1nc3ccccc3nc1n2CCC1=CCCCC1	A549 tox inconclusive, Nrf2 block 13µM
Cc1nc2c(c(=O)n1CCC1=CCCCC1)c1nc3ccccc3nc1n2/N=C/c1ccccc1	Nrf2 block inconclusive (no result: A549 tox)
COc1cc(-c2ccc3ncnc(N(C)Cc4csc(C)n4)c3c2)cc(OC)c1OC	none (no result: Nrf2 ARE act, Mito fusion yeast, miR-21 FLuc)
O=C(Cc1ccc(-n2c(=O)[nH]c3ccsc3c2=O)cc1)N1CCN(c2ccc(Cl)cc2)CC1	Nrf2 block 23µM
CCCCC(=O)N1C/C=C\C(c2ccc(OC)cc2)N(Cc2ccc(F)cc2)C(=O)C1Cc1ccccc1 (stereo not drawn)	Nrf2 block 23µM (no result: Nrf2 ARE act, Mito fusion yeast, miR-21 FLuc)
CCCCCCC(=O)N1C/C=C\C(c2ccc(OC)cc2)N(Cc2ccc(F)cc2)C(=O)C1Cc1ccccc1 (stereo not drawn)	Nrf2 block inconclusive (no result: Nrf2 ARE act, Mito fusion yeast, miR-21 FLuc)
COc1ccc(C2/C=C\CN(C(=O)Nc3ccc(C(F)(F)F)cc3)CC(=O)N2Cc2ccc(F)cc2)cc1 (stereo not drawn)	Nrf2 block 23µM, miR-21 FLuc inconclusive
COc1ccc(C2/C=C\CN(C(=O)Nc3ccccc3)CC(=O)N2Cc2ccc(F)cc2)cc1 (stereo not drawn)	none
Cc1ccc(CSC2=NS(=O)(=O)c3ccccc32)cc1	none (no result: Nrf2 ARE act, Mito fusion yeast, miR-21 FLuc)
COc1cc(C=C2CN(C)C(=O)C2=O)ccc1O	none (no result: A549 tox, Nrf2 block, Mito fusion yeast, miR-21 FLuc)
CCOc1cc(/C=C2\CN(C)C/C(=C\c3ccc(O)c(OCC)c3)C2=O)ccc1O	A549 tox 13µM, Nrf2 block 21µM, Nrf2 ARE act inconclusive, miR-21 FLuc inconclusive
Cc1nn(-c2ccccc2)c2nc(C3CC3)cc(C(=O)Nc3ccccc3F)c12	none (no result: Mito fusion yeast)
N#C/C(=C(/O)COc1ccc(Cl)cc1)c1nc2ccccc2s1	A549 tox 16µM, Nrf2 block 23µM
N#C/C(=C(/O)COc1ccccc1)c1nc2ccccc2s1	Nrf2 block inconclusive
CCC(CO)[n+]1c(C)cc(/C=C2\Sc3ccccc3N2Cc2ccccc2)cc1C (stereo not drawn)	A549 tox inconclusive, Nrf2 block 15µM, miR-21 FLuc inconclusive
COc1cccc(N=c2oc3ccc(OC)cc3cc2-c2nc3ccccc3[nH]2)c1	A549 tox 13µM, Nrf2 block inconclusive
CCc1ccc(S(=O)(=O)Nc2c(C)n(C)n(-c3ccccc3)c2=O)cc1	none
Cc1c(C(C)C)c(=O)n(-c2ccc(S(=O)(=O)NC3CCCCC3)cc2)n1C	Nrf2 block 15µM
Cc1c(C(C)C)c(=O)n(-c2ccc(S(=O)(=O)NCc3ccccc3)cc2)n1C	Nrf2 block 7.3µM
Cc1c(C(C)C)c(=O)n(-c2ccc(S(=O)(=O)N3CCOCC3)cc2)n1C	Nrf2 block inconclusive
O=C(Nc1ccccc1)N1N=C(c2cccs2)CC1c1cccs1 (stereo not drawn)	Nrf2 block 23µM, Mito fusion yeast 11µM
O=C(CN1CCOCC1)N1N=C(c2cccs2)CC1c1cccs1 (stereo not drawn)	none
CCOc1ccc(CNC(=O)Cn2c(=O)c3cccn3c3ccccc32)cc1	Nrf2 block 16µM
CCOC(=O)c1cccc(NC(=O)Cn2c(=O)c3cccn3c3ccccc32)c1	Nrf2 block 12µM (no result: Mito fusion yeast)
CCc1ccc(NC(=O)Cn2c(=O)c3cccn3c3ccccc32)cc1	Nrf2 block 23µM!
CCOc1ccc(CCNC(=O)c2ccc(Cn3c(=O)c4cccn4c4cccnc43)cc2)cc1	A549 tox inconclusive, Nrf2 block 12µM (no result: Mito fusion yeast)
CCc1ccc(NC(=O)CCn2c(=O)c3cccn3c3ccccc32)cc1	Nrf2 block inconclusive
Cc1nc2nc(NC(=O)C(C)C)[nH]n2c(=O)c1Cc1ccccc1	none (no result: Mito fusion yeast)
Cc1noc(C)c1-c1ccc2ncnc(NCC3CCN(C)CC3)c2c1	none (no result: Nrf2 ARE act, Mito fusion yeast, miR-21 FLuc)
CCc1ccc(NC(=O)c2ccc(F)c(S(=O)(=O)NCc3ccc(Cl)c(Cl)c3)c2)cc1	none (no result: Nrf2 block, Mito fusion yeast)
NS(=O)(=O)c1ccc(NC(=O)COC(=O)C2(c3ccccc3F)CCCC2)cc1	A549 tox inconclusive, Nrf2 block 21µM
O=C(COC(=O)C1(c2ccccc2F)CCCC1)NCc1cccs1	Nrf2 block 21µM
NS(=O)(=O)c1ccc(NC(=O)COC(=O)C23CC4CC(CC(C4)C2)C3)cc1	none
CC(=O)Nc1ccc(SCC(c2ccccc2)N2CCN(CC(C)C)CCC2=O)cc1 (stereo not drawn)	none (no result: Nrf2 ARE act, Mito fusion yeast, miR-21 FLuc)
Cn1ncc2ccc(-c3ccc4ncnc(NCc5cccs5)c4c3)cc21	none (no result: Nrf2 ARE act, Mito fusion yeast, miR-21 FLuc)
CCOc1ccc(C(=O)C(CCC(CN(C)C)C(=O)c2ccc(OCC)cc2)CN(C)C)cc1 (stereo not drawn)	A549 tox inconclusive, Nrf2 block inconclusive, Nrf2 ARE act inconclusive, miR-21 FLuc inconclusive
CN(C)CC(CCC(CN(C)C)C(=O)c1ccccc1)C(=O)c1ccccc1 (stereo not drawn)	A549 tox inconclusive, Nrf2 block 18µM, Nrf2 ARE act inconclusive, miR-21 FLuc inconclusive
O=C(c1ccc(F)cc1)C(CN1CCOCC1)c1ccccc1 (stereo not drawn)	Nrf2 ARE act inconclusive, miR-21 FLuc inconclusive
O=C(c1ccccc1)C(CCC(CN1CCOCC1)C(=O)c1ccccc1)CN1CCOCC1 (stereo not drawn)	Nrf2 block 23µM, miR-21 FLuc inconclusive
COc1ccc(-c2nc(SCC(=O)NCc3nc4ccccc4n3C)n3[nH]c(=O)cc3n2)cc1	Nrf2 block inconclusive (no result: Mito fusion yeast)
Cc1c(Cl)cccc1NC(=O)CSc1cc(-c2ccccc2)ncn1	none (no result: Mito fusion yeast)
COc1ccc(C#Cc2c[nH]c(=O)c3cncnc23)cc1OC	none (no result: Nrf2 ARE act, Mito fusion yeast, miR-21 FLuc)
COc1ccc(-c2cc(C(F)(F)F)nc(SCC(=O)Nc3cc(C)on3)n2)cc1	none
COc1ccc(-c2cc(C(F)(F)F)nc(SCC(=O)Nc3ccc(C(C)=O)cc3)n2)cc1	Nrf2 block 23µM (no result: Mito fusion yeast)
Cc1ccc(S(=O)(=O)c2nnn3c2nc(Nc2ccc(C(C)C)cc2)c2sccc23)cc1C	Nrf2 block 21µM (no result: Mito fusion yeast)
CCOc1ccc(Nc2nc3c(S(=O)(=O)c4ccc(C(C)C)cc4)nnn3c3ccsc23)cc1	none (no result: Mito fusion yeast)
